In patent US4908365A, “Benzhydryloxyethylpiperazine derivatives, processes for their preparation and pharmaceutical compositions in which they are present” (priority 1986, dated 1990):

Columns and labels:
histamine [1] = assay: Bronchospasm by inhalation of a histamine solution; format: in vivo, guinea-pigs; conditions: guinea-pig, p.o.; 30 min
histamine [2] = assay: Antihistaminic activity (histaminic shock, lethal dose of histamine); format: in vivo, guinea-pigs; conditions: guinea-pig, p.o.; 30 min
mice = assay: Study of the spontaneous motility (motor activity), photoelectric actimeter; format: in vivo; conditions: mouse, i.p., weak dose

Row | Structure (SMILES) | Bronchospasm ED50 (histamine [1]) [mg/kg] | Histaminic shock ED50 (histamine [2]) [mg/kg] | Motor activity (mice)
1 | Cn1c(=O)c2c(ncn2CCN2CCN(CCOC(c3ccccc3)c3ccccc3)CC2)n(C)c1=O | 0.59 | 2.57 | –
2 | Cc1ccc(C(OCCN2CCN(CCn3cnc4c3c(=O)n(C)c(=O)n4C)CC2)c2ccccc2)cc1 (centres unmarked) | 0.19 | 0.55 | increase
